Drawing on ChEMBL document CHEMBL1156817, “Fructose-1,6-bisphosphatase Inhibitors. 2. Design, synthesis, and structure-activity relationship of a series of phosphonic acid containing benzimidazoles that function as 5'-adenosinemonophosphate (AMP) mimics” (J Med Chem, 2010), this text covers IC50 for one molecule.

This assay relates to Hepatocyte. In words: cells. The note with it: Rattus norvegicus.

Turning to `CC(C)Cn1c(-c2ccc(P(=O)(O)O)o2)nc2c(N)c(F)cc(Cl)c21`, inhibition was half-maximal at 3.6 µM (IC50).

What is called IC50 is the concentration that inhibits the measured activity by half. High values mean weaker potency, low ones greater potency.
